{"sequences": {"note": "Chains of the proteins cited; added tags and fusions are not shown. Lines headed by an entry give the natural chain unless they say otherwise; changes in a name come on top.", "UniProt Q96LB2": "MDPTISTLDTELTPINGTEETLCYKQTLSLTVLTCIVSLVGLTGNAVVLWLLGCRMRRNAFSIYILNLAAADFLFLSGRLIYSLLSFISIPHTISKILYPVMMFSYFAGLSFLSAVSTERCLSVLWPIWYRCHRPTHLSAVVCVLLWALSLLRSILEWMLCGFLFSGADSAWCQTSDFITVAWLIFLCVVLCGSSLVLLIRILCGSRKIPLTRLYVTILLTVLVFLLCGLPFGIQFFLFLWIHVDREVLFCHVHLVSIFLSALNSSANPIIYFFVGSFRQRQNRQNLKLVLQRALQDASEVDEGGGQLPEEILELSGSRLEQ"}, "source": "PubChem BioAssay AID602412", "about": "(Johns Hopkins Ion Channel Center, 2012)", "molecular_target": "Mas-related G-protein coupled receptor member X1 (Homo sapiens) (UniProt Q96LB2)", "assay": "MrgX1 receptor agonists, duplicate retest, confirmation, HEK293 cells, Fluo-4 calcium flux (AID 602412)", "conditions": "MrgX1-HEK293, Fluo-4 calcium fluorescence, FDSS; at 10 µM; active compounds read high", "note": "The entries are a selection whose mix differs from that of the whole data set. The source made the active and inactive calls.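 Rule for the calls: active = calcium signal rise, corrected for plate position, at least 3 library SD high, with starting brightness within 5 such deviations; inactive = the rest.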", "data": [{"smiles": "CN(C)C1(CNC(=O)c2ccc(Cl)c(S(N)(=O)=O)c2)CCCCC1", "values": [{"measurement": "activation", "value": "active: 126%"}]}]}
